Columns and labels:
HCMV strain TB40/E = experiment: Inhibition of infection of fibroblasts (HFFs), IE antigen immunofluorescence; assay type: cell-based, Human cytomegalovirus; conditions: increasing concentrations, pre-incubated 2 h
Method: For testing the inhibitory effect of antivirals or fusion proteins on HCMV, the respective inhibitors were diluted in MEM and mixed with infectious supernatants, the mixtures were incubated for 2 h at 37° C. before addition to the cells. For fibroblast infection the virus-inhibitor mixture was incubated on the cells for about 24 h. If endothelial cells were included in the experiment, all cells were supplied with their respective maintenance media after 2 h, and further incubated for 22 h.
Infection efficiencies were determined by immunofluorescence staining for viral proteins. For fixation and permeabilization the cells were incubated with 80% acetone for 5 min. For HCMV infected cells the immediate early proteins pUL122/123 were detected with a mouse monoclonal (clone E13, Argene) and visualized using a Cy3 conjugated goat anti-mouse secondary antibody (Jackson Immuno Research). HSV infected cultures were stained 6 h post infection for ICP0 using a mouse monoclonal (clone 11060, Santa Cruz) and goat anti-mouse AF488 (life technologies). DAPI was used to locate nuclei. Infection rates were determined by counting the number of cell nuclei positive for the respective viral protein, as well as the total number of nuclei per image. For each condition three images were evaluated. […]

HCMV particles = experiment: Binding of chimeric receptors (Fc-fusion proteins) to HCMV particles; set-up: species or system Human cytomegalovirus; conditions: particles pre-incubated with Fc-fusion protein, attached to cells on ice
Method: To assess the binding of Fc-Proteins to virus particles, HFFs were seeded at a density of 40,000 cells per well on IBIDI plates 1 day prior to infection. Virus preparations were pre-incubated with Fc-fusion proteins at a final concentration of 500 ng/ml for 2 h at 37° C. The virus/Fc-protein mixtures were incubated with the cells for 1.5 h on ice. Before fixation with 80% acetone, the cells were washed once with MEM. For staining of viral particles mouse hybridoma recognizing the abundant viral protein pp150 (generously provided by W. Britt, Sanchez 2000) used.
The inventors tested this by staining of adsorbed virus particles with the Fc-fusion proteins. […] Virus particles were stained for the capsid protein pp150 and bound Fc-fusion proteins.
The inventors analyzed the mode of inhibition by PDGFR-alpha-Fc. For this, the binding of different concentrations of the fusion protein was quantified by assessing the particle intensities after staining with anti-human antibody (FIG. 5). […] (FIGS. 4 and 5).

## EGFR-Fc: recombinant Fc-fusion protein obtained from R&D (344-ER-050), comparison chimera [reference compound]
HCMV strain TB40/E
  inhibitory potential of Fc chimeras on HCMV infection of HFFs: neither PDGFR-beta-Fc nor EGFR-Fc had an effect
HCMV particles
  binding of Fc-fusion protein to virus particles (anti-human antibody staining): visualized only those particles that were pre-treated with PDGFR-alpha-Fc
